This is a selection; strong and weak results do not stand in their true shares. Calls of active or inactive are those of the source. The call rests on the fitted dose curve; in most records, active means well fitted inhibition curve with a large enough effect; inconclusive means small, poorly fitted or top-dose-only effect, or effect the other way; inactive means flat fitted curve, though single readings scatter.
Target: Protein phosphatase EYA2 (Homo sapiens) (UniProt O00167)
Assay: qHTS Assay for Inhibitors of the Phosphatase Activity of Eya2
Settings: recombinant Eya2, OMFP fluorescence dephosphorylation (OMFP is methylfluorescein phosphate); at 76.9 µM (top of the series)
Text: The Eya family of proteins are essential co-activators of the Six1 transcription factor. Six1 is a developmental gene that is abnormally re-expressed in a large percentage of breast cancers. This over-expression plays a causal role in the initiation and metastatic development of breast cancers. The Eya family of proteins was also found to contain a unique HAD phosphatase domain with protein tyrosine phosphatase activity which can potentially play a role in Six1-mediated breast tumorigenesis. […] We have developed and optimized a 1536 well fluorescence-based HTS assay targeting the phosphatase activity of Eya2. Inhibitors found against Eya2 could serve as potential therapeutic tools to inhibit Six1-mediated breast tumorigenesis and to increase the efficiency of radiation and certain chemo therapy. These inhibitors could also be used as chemical probes to study the function of Eya2's phosphatase activity and its role in Six1-mediated breast tumorigenesis.
The Eya2 enzyme was kindly provided by the laboratory of Dr. Rui Zhao. The 3-O-methyl-fluorescein phosphate (OMFP) substrate and all buffer reagents were purchased from Sigma Aldrich. qHTS Assay Setup: 1. Buffer- 50 mM HEPES pH 7.5, 50 mM NaCl, 5 uM MgCl2, 0.05% BSA, 1 mM DTT. 2. OMFP Stock- 10 mM solution prepared in 100% DMSO and stored in single use aliquots at -20C. Assay Procedure- 1. Dispense 1.5 ul per well of Eya2 at 0.2 uM in black medium binding 1536 well Greiner plate 2. Transfer 23 nl of compound and control compound (EGTA) to plate 3. Incubate at ambient for 10 minutes 4. Dispense 1.5 ul per well of OMFP at 50 uM 5. Incubate at ambient for 10 minutes 6. Read on ViewLux using Excitation = 485 nm, Emission = 525 nm
On the % scale 0 is the no-effect control and ±100 the full control effect.

The chains behind the UniProt entries cited, without tags or fusion partners.
UniProt O00167, whole entry: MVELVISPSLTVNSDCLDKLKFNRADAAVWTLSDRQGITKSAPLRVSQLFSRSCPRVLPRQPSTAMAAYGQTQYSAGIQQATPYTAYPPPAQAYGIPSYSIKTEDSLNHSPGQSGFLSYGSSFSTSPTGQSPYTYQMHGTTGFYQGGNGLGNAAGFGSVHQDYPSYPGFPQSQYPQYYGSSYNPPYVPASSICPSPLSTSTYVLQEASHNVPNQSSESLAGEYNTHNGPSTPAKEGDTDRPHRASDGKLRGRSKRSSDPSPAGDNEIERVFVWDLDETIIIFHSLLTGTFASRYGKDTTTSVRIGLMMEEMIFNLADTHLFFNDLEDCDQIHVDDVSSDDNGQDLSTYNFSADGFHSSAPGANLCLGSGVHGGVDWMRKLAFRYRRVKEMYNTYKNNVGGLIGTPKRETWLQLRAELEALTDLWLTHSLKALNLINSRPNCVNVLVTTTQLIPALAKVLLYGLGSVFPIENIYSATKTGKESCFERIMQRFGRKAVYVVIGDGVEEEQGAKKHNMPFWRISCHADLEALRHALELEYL

SMILES | activity, negative = inhibition
CP(=O)(Nc1ccc(SC(F)(F)F)cc1)Oc1ccccc1 (configuration not stated) | inactive: -5.24%
CCCOc1ccc(NP(C)(=O)Oc2ccc(Cl)cc2)cc1 (configuration not stated) | inactive: -4.46%
CN1CCCCC1COC(=O)C1(O)c2ccccc2CCc2ccccc21 (configuration not stated) | inactive: 7.57%
COc1ccccc1OP(C)(=O)Nc1c(C)cccc1C (configuration not stated) | inactive: -5.7%
CC1=C2N=C(C=C3N=C(C(C)=C4[N-][C@@](C)([C@@H]5N=C1[C@](C)(CCC(=O)NC[C@@H](C)OP(=O)([O-])O[C@H]1[C@@H](O)[C@@H](n6cnc7cc(C)c(C)cc76)O[C@@H]1CO)[C@H]5CC(N)=O)[C@@](C)(CC(N)=O)[C@@H]4CCC(N)=O)[C@@](C)(CC(N)=O)[C@@H]3CCC(N)=O)C(C)(C)[C@@H]2CCC(N)=O.[C-]#N.[Co+3] | inactive: -9.1%
Cc1nc2ccc3ccccc3c2s1.O=[N+]([O-])c1cc([N+](=O)[O-])c(O)c([N+](=O)[O-])c1 | inactive: 13.2%
O=[N+]([O-])c1cc([N+](=O)[O-])c(-n2nnc3ccccc32)c([N+](=O)[O-])c1 | inactive: 1.23%
Cc1ccc(C)c(NP(C)(=O)Oc2ccccc2)c1 (configuration not stated) | inactive: 2.07%
CP(=O)(Nc1cccc(Br)c1)Oc1ccccc1 (configuration not stated) | inactive: -1.52%
Cc1cc(C)cc(OP(C)(=O)Nc2ccccn2)c1 (configuration not stated) | inactive: -24.5%
CCOC(=O)c1ccc(NP(C)(=O)Oc2cc(C)cc(C)c2)cc1 (configuration not stated) | inactive: -8.46%
Cc1cc(C)cc(OP(C)(=O)Nc2ccc(C)cc2C)c1 (configuration not stated) | inactive: 3.63%
COc1ccccc1OP(C)(=O)Nc1cccc(Br)c1 (configuration not stated) | inactive: -22.9%
CC1=NCCc2c1[nH]c1ccccc21.O=[N+]([O-])c1cc([N+](=O)[O-])c(O)c([N+](=O)[O-])c1 | inactive: 4.9%
Cc1cc(C)cc(OP(C)(N)=O)c1 (configuration not stated) | inactive: 9.8%
COc1ccc(OP(C)(=O)Nc2cccc(F)c2)cc1 (configuration not stated) | inactive: 32.7%
COc1ccccc1OP(C)(=O)Nc1cc(Cl)ccc1C (configuration not stated) | inactive: 1.53%
Cc1ccc(NP(C)(=O)Oc2ccccc2)c(C)c1 (configuration not stated) | inactive: -2.41%
COc1ccccc1OP(C)(=O)Nc1ccc(C)cc1 (configuration not stated) | inactive: 11.6%
CCOC(=O)c1ccc(NP(C)(=O)Oc2ccccc2)cc1 (configuration not stated) | inactive: -2.09%
O=[N+]([O-])c1ccc2c(c1)C=Nc1ccccc1O2 | inactive: -3.19%
Cc1cccc(C)c1OP(C)(N)=O (configuration not stated) | inactive: -9.1%
CC(C)(C)c1ccc(OP(C)(=O)Nc2ccc(SC(F)(F)F)cc2)cc1 (configuration not stated) | inactive: -18.2%
O=[N+]([O-])c1cc([N+](=O)[O-])c(Nc2cccnc2)c([N+](=O)[O-])c1 | inactive: -11.1%
CCN(CC)CCCOC(=O)C(O)(c1ccccc1)c1ccccc1 | inactive: -23.2%
CCOC(=O)c1ccc(NP(C)(=O)Oc2ccc(OC)cc2)cc1 (configuration not stated) | inactive: -5.18%

SMILES | activity, negative = inhibition
CCOP(C)(=S)SCC(=O)NC(C)C(=O)O (configuration not stated) | inactive: 10.3%
Cc1cc(C)cc(OP(C)(=O)Nc2ccc(SC(F)(F)F)cc2)c1 (configuration not stated) | inactive: 0.0876%
CCc1ccc(OP(C)(=O)N2CCN(c3ccc([N+](=O)[O-])cc3)CC2)cc1 (configuration not stated) | inactive: 6.74%
CP(=O)(NC(=O)Nc1ccccc1)Oc1ccccc1 (configuration not stated) | inactive: -5.08%
CP(=O)(Oc1ccccc1)OC(c1ccccc1)C(F)(F)F (configuration not stated) | inactive: 4.65%
CP(=O)(Nc1ccc(SC(F)(F)F)cc1)Oc1ccc(Cl)cc1 (configuration not stated) | inactive: -18.6%
Cc1cccc(C)c1OP(C)(=O)Nc1ccc(SC(F)(F)F)cc1 (configuration not stated) | inactive: -21.4%
CP(=O)(Nc1ccccc1Br)Oc1ccccc1 (configuration not stated) | inactive: 4.32%
COc1ccccc1OP(C)(=O)Nc1ccccc1 (configuration not stated) | inactive: 5.95%
CP(=S)(Nn1cnnc1)Oc1ccccc1 (configuration not stated) | inactive: -6.17%
CCOC(=O)c1ccc(NP(C)(=O)Oc2ccc(Cl)cc2)cc1 (configuration not stated) | inactive: 3.2%
CP(=O)(OC12CC3CC(CC(C3)C1)C2)OC12CC3CC(CC(C3)C1)C2 | inactive: -11.5%
CN(C)C(=O)c1c([N+](=O)[O-])cc([N+](=O)[O-])cc1[N+](=O)[O-] | inactive: 5.11%
CC(C)(C)c1ccc(OP(C)(=O)O)cc1 | inactive: 9.14%
COc1ccccc1OP(C)(=O)Nc1ccccc1Br (configuration not stated) | inactive: 2.39%
CP(=O)(Nc1ccc(Cl)cc1)Oc1ccc(F)cc1 (configuration not stated) | inactive: 11.6%
O=C(OCCCN1CCCC1)C(O)(c1ccccc1)C1CCCCC1 (configuration not stated) | inactive: 2.29%
COc1ccccc1OP(C)(=O)Nc1c(C)n(C)n(-c2ccccc2)c1=O (configuration not stated) | inactive: -2.8%
CP(=O)(Oc1ccccc1)N1CCOC1=O (configuration not stated) | inactive: -0.119%
COc1ccc(OP(C)(=O)Nc2ccc(Br)cc2)cc1 (configuration not stated) | inactive: 3.15%
CCN(CC)CC(O)COC(=O)C(O)(c1ccccc1)C1CCCCC1 (configuration not stated) | inactive: 3.62%
CP(=O)(Nc1ccccn1)Oc1ccccc1 (configuration not stated) | inactive: -27.3%
CCc1ccc(OP(C)(=O)O)cc1 | inactive: -11.9%
O=[N+]([O-])c1cc([N+](=O)[O-])c(Nc2ccccn2)c([N+](=O)[O-])c1 | inactive: 0.372%
Cc1c(NP(C)(=O)Oc2ccc(C(C)C)cc2)c(=O)n(-c2ccccc2)n1C (configuration not stated) | inactive: -6.11%
COc1ccc(OP(C)(=O)Nc2ccccn2)cc1 (configuration not stated) | inactive: -0.586%

SMILES | activity, negative = inhibition
CN(C)CCOC(=O)C(O)(c1ccccc1)C1CCCC1 (configuration not stated) | inactive: -15.9%
COc1ccccc1OP(C)(=O)Nc1ccc(Br)cc1 (configuration not stated) | inactive: -1.9%
CP(=O)(OCCOc1ccccc1)OCCOc1ccccc1 | inactive: -8.52%
CP(=O)(Nc1ccc(Cl)cc1Cl)Oc1ccccc1 (configuration not stated) | inactive: 15.6%
Cc1nc2ccc3ccccc3c2o1.O=[N+]([O-])c1cc([N+](=O)[O-])c(O)c([N+](=O)[O-])c1 | inactive: 2.98%
COc1ccccc1OP(C)(=O)Nc1ccc(C)c(C)c1 (configuration not stated) | inactive: -4.78%
COc1ccc(OP(C)(=O)Nc2ccccc2Br)cc1 (configuration not stated) | inactive: -2.92%
Cc1cc(C)cc(OP(C)(=O)Nc2cccc(C(F)(F)F)c2)c1 (configuration not stated) | inactive: -1.47%
CP(=O)(Nc1ccccc1)Oc1ccc(F)cc1 (configuration not stated) | inactive: -16.8%
CCCCCOc1ccc(NP(C)(=O)Oc2ccc(Cl)cc2Cl)cc1 (configuration not stated) | inactive: -23.4%
CCN(CC)CCCOC(=O)C(O)(c1ccccc1)C1CCCCC1 (configuration not stated) | inactive: 2%
CCOC(=O)c1ccc(NP(C)(=O)Oc2ccc(F)cc2)cc1 (configuration not stated) | inactive: 1.14%
COc1ccc(OP(C)(=O)Nc2ccc(SC(F)(F)F)cc2)cc1 (configuration not stated) | inactive: -15.4%
O=C(OCCN1CCN(CCOCc2ccccc2)CC1)C(O)(c1ccccc1)c1ccccc1 | inactive: -5.39%
CP(=O)(Nc1ccccc1F)Oc1ccccc1 (configuration not stated) | inactive: 1.72%
CC(C)c1ccc(OP(C)(=O)Nc2ccc(SC(F)(F)F)cc2)cc1 (configuration not stated) | inactive: -24.5%
Cc1ccccc1NP(C)(=O)Nc1ccccc1C | inactive: 5.03%
CP(=O)(Nc1ccc2c(c1)OCCO2)Oc1ccccc1 (configuration not stated) | inactive: -17.2%
CCOP(C)(=S)SCC(=O)NC(C)(CC)C(=O)O (configuration not stated) | inactive: -7.66%
CP(=O)(Nc1ccc(SC(F)(F)F)cc1)Oc1ccc(F)cc1 (configuration not stated) | inactive: -21.9%
O=[N+]([O-])c1ccc(OP2(=O)COCCO2)cc1 (configuration not stated) | inactive: 6.92%
Cc1cc(-c2cccc3ccccc23)c(C)cn1.O=[N+]([O-])c1cc([N+](=O)[O-])c(O)c([N+](=O)[O-])c1 | inactive: 10.2%
CN(C)CCOC(=O)C(O)(c1ccccc1)C1CCCCC1 (configuration not stated) | inactive: -12.3%
COc1ccc(NP(C)(=O)Oc2ccccc2OC)cc1 (configuration not stated) | inactive: -7.89%
COc1ccc(OP(C)(=O)Nc2cccc(Br)c2)cc1 (configuration not stated) | inactive: 7.63%

Source: PubChem BioAssay AID488837 (National Center for Advancing Translational Sciences (NCATS), 2010)
